# Data: patent US7785879B1, “Pregnane X receptor compositions, crystals and uses thereof” (Schering Corporation, priority 2005, dated 2010)
# Experiments:
# [1] = target: T1, PXR (Homo sapiens, UniProt O75469); settings: read-out: reported Kd; Table 2; cited from earlier work
# T1 sequence (O75469 1-434): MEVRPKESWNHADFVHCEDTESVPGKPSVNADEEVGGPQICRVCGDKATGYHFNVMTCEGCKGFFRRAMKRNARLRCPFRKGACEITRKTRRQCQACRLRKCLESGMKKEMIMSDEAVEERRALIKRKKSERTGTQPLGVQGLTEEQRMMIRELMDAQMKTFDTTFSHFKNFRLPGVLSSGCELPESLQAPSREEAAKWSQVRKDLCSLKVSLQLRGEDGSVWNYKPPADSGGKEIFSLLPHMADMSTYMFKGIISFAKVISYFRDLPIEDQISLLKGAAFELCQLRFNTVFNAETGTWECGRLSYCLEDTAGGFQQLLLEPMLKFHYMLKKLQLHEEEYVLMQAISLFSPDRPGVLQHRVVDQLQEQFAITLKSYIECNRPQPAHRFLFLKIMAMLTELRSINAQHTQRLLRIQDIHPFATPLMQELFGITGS
# [2] = target: T2, PXR-LBD-L10-SRC (Homo sapiens, UniProt O75469); assay: Temperature-dependent circular dichroism, stabilization of PXR-LBD-L10-SRC; settings: 25 uM compound
# T2 sequence (O75469 with tags, fused parts or gaps): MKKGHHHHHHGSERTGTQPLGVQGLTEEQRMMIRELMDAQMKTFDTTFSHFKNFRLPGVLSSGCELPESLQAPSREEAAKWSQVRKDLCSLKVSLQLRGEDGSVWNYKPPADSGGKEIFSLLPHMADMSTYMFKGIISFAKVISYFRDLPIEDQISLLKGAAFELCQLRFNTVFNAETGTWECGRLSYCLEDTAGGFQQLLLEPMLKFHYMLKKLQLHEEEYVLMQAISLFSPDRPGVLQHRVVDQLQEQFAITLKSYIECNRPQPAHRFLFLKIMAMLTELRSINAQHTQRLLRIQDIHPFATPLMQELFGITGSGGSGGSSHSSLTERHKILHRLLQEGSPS
# Method: The CD is a function of wavelength.
# PXR-LBD-L10-SRC was expressed and purified essentially as set forth above. […] Stabilization of PXR-LBD-L10-SRC in the presence of various substances was measured by temperature-dependent circular dichroism. PXR-LBD-L10-SRC was assayed under the following conditions:
# Buffer: 25 mM Hepes, pH 7.9, 150 mM NaCl, 5% glycerol, 10 mM BME,
# heating ramp at 2° C./min
# temperature range: 30-80° C.
substance,measurement,setting,value
Hyperforin,Kd,[1],200 nM
same,Tm,"[2]; 2.5 μM protein, 225 nm, apo enzyme Tm 52.9 ± 0.05",59.7 C
same,Kd,[2]; from CD thermal denaturation,100 nM
